Laboratory results as given in publication PMC5715147, “Albumin/vaccine nanocomplexes that assemble in vivo for combination cancer immunotherapy” (Nature Communications, 2017).

Tested on: IN LN B220+ B cells, CD11c+ DCs, and F4/80+ macrophages
Assay: AlbiVax uptake in LN-residing APCs by flow cytometry
Details: premixed MSA-FITC and AlbiCpG-Alexa555 s.c.

Question: How did the “MSA+ B cells, day 1” value turn out when “MSA-FITC: FITC-labeled mouse serum albumin” was run?
Answer: 7%
